Our source for the activity change values is PubChem BioAssay AID720551 (National Center for Advancing Translational Sciences (NCATS), 2013).

Chains of the proteins cited; added tags and fusions are not shown.
UniProt Q12809, whole entry: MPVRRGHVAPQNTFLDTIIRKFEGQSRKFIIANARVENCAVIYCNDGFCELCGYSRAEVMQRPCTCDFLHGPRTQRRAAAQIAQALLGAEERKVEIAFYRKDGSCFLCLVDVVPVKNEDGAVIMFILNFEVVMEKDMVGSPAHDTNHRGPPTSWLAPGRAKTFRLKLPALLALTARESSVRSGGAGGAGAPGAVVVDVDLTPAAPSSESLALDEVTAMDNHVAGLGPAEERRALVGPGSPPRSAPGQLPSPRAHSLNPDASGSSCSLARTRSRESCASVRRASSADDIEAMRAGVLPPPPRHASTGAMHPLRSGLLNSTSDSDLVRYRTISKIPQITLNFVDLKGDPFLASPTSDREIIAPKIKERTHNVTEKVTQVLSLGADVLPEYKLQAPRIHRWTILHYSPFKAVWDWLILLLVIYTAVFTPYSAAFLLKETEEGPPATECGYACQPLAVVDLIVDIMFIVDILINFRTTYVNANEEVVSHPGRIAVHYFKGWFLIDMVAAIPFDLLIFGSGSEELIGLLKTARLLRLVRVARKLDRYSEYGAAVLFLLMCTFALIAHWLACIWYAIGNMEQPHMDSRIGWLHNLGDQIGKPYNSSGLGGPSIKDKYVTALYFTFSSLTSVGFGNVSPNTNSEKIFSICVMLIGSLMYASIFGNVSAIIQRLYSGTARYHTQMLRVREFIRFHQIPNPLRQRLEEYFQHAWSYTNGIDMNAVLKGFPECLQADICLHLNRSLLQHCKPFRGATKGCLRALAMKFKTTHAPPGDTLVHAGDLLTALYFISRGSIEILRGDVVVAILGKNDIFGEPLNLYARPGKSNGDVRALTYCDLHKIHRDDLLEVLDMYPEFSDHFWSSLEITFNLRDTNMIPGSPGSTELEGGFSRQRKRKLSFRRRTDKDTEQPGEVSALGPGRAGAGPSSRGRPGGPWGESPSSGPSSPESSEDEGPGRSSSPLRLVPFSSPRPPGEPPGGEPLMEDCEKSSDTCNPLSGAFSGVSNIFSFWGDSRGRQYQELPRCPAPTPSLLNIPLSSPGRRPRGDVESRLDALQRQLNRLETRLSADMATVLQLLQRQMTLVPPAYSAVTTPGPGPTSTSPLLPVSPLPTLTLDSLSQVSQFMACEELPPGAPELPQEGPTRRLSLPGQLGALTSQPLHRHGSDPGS

The list shows a part of the results, in another mix than the full data. Activity calls are given as the source filed them.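 Rule for the calls: active = maximum activity change below -70%; inconclusive = maximum activity change between -70% and -50%; inactive = maximum activity change above -50%.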
% is set by controls: 0 for no effect and ±100 for the full control effect.

This experiment addresses Voltage-gated inwardly rectifying potassium channel KCNH2 (Homo sapiens) (UniProt Q12809). Description: qHTS for Inhibitors of KCHN2 3.1: Wildtype qHTS. The following applies: U2OS, BacMam KCNH2, thallium flux FluxOr; at 1.84 µM; hits give low values. An excerpt: Many antipsychotic drugs that inhibit the neurotransmitter dopamine also bind to hERG1 channel which might help explain their antipsychotic activity but also produces cardiac side effects. The discovery of the novel KCNH2 3.1 isoform offers a potential new target for the development of antipsychotic drugs without cardiac side effects. This proposal will use a high throughput thallium flux assay developed for KCNH2 to screen compounds that modulate the activity of KCNH2 3.1. The wild type KCNH2 channel will also be screened in parallel to help define the selective modulators of this KCNH2 3.1 potassium channel. The resulting compounds will be validated in electrophysiology experiments. The availability of animal models will allow future testing in vivo for effects on memory and other aspects of animal physiology linked with psychosis. NIH Chemical Genomics Center [NCGC] NIH Molecular Libraries Probe Centers Network [MLPCN] MLPCN Grant: MH096539 Assay Submitter (PI): James Barrow, Johns Hopkins University, Lieber Institute for Brain Development
U2OS cells were resuspended in cell media containing 10% fetal calf serum (FCS) at a concentration of 2 million cells / mL. The solution was treated with the Wild-type virus at 2.03 x 10^8 / mL and allowed to incubate at room temperature in the dark. After 4 hours of incubation, DMEM + 10% fetal bovine serum (FBS) was added to the cell solution. Three microliter was then dispensed into a 1536 tissue culture treated black assay plates which were incubated overnight at 37 C. Two microliter of loading buffer (HBSS + HEPES + Red40 dye quencher + FluxOr dye) was added and the assay plates were incubated for 45 min at room temperature in the dark. […] A stimulation buffer was added to the plate and the second kinetic read (2 min) was obtained. The rate constant was calculated from the kinetic reads and normalized to the positive and negative DMSO controls.
Background: In qHTS, concentration-response curves come from the screen itself.
As for `O=C(OCCN1CCN(CCOCc2ccccc2)CC1)C(O)(c1ccccc1)c1ccccc1`, the activity change was inactive: 37.6%. Then `CP(=O)(Nc1ccccc1F)Oc1ccccc1` (stereo not given), with inactive: 4.42%; and `CC(C)c1ccc(OP(C)(=O)Nc2ccc(SC(F)(F)F)cc2)cc1` (stereo not given), with inactive: 13.5%; and `Cc1c([N+](=O)[O-])cc([N+](=O)[O-])c(Br)c1[N+](=O)[O-]`, with inactive: 3.98%. Then `CCN(CC)CCCOC(=O)C(O)(c1ccccc1)C1CCCCC1` (stereo not given), with inactive: 0.3%. The value for `CP(=O)(Nc1ccccc1)Oc1ccc(F)cc1` (stereo not given) was inactive: 7.27%; that for `CCCCCOc1ccc(NP(C)(=O)Oc2ccc(Cl)cc2Cl)cc1` (stereo not given) was inactive: 2.76%; that for `CCOC(=O)c1ccc(NP(C)(=O)Oc2ccc(F)cc2)cc1` (stereo not given) was inactive: -9.47%.

On to `COc1ccc(OP(C)(=O)Nc2ccc(SC(F)(F)F)cc2)cc1` (stereo not given), for which the activity change was inactive: -4.83%. Then `O=[N+]([O-])c1ccc(OP2(=O)COCCO2)cc1` (stereo not given), with inactive: -3.88%. Then `Cc1cc(-c2cccc3ccccc23)c(C)cn1.O=[N+]([O-])c1cc([N+](=O)[O-])c(O)c([N+](=O)[O-])c1`, with inactive: -16.3%. Regarding `Cc1c(C(c2ccc3c(c2)OCO3)c2c(C)n(C)n(-c3ccccc3)c2=O)c(=O)n(-c2ccccc2)n1C.O=[N+]([O-])c1cc([N+](=O)[O-])c(O)c([N+](=O)[O-])c1`, the activity change was inactive: 5.48%. Then `COc1ccc(OP(C)(=O)Nc2cccc(Br)c2)cc1` (stereo not given), with inactive: 0.921%; and `CN(C)CCOC(=O)C(O)(c1ccccc1)C1CCCCC1` (stereo not given), with inactive: 5.98%; and `COc1ccc(NP(C)(=O)Oc2ccccc2OC)cc1` (stereo not given), with inactive: 0.13%. Then `CP(=O)(Nc1ccc2c(c1)OCCO2)Oc1ccccc1` (stereo not given), with inactive: 5.81%; and `Cc1ccccc1NP(C)(=O)Nc1ccccc1C`, with inactive: 1.21%; and `CP(=O)(Nc1ccc(SC(F)(F)F)cc1)Oc1ccc(F)cc1` (stereo not given), with inactive: -0.353%.

Take `CCOP(C)(=S)SCC(=O)NC(C)(CC)C(=O)O` (stereo not given): the activity change was inactive: -3.53%. Then `COc1ccccc1OP(C)(=O)Nc1ccccc1Br` (stereo not given), with inactive: 2.53%; and `CC(C)(C)c1ccc(OP(C)(=O)O)cc1`, with inactive: -2.85%; and `CP(=O)(Nc1ccc(Cl)cc1)Oc1ccc(F)cc1` (stereo not given), with inactive: -0.755%. For `CCN(CC)CC(O)COC(=O)C(O)(c1ccccc1)C1CCCCC1` (stereo not given), the activity change is inactive: 1.11%. Then `COc1ccc(OP(C)(=O)Nc2ccc(Br)cc2)cc1` (stereo not given), with inactive: 6.5%. For `COc1ccccc1OP(C)(=O)Nc1c(C)n(C)n(-c2ccccc2)c1=O` (stereo not given), the activity change is inactive: 19.4%.

On to `O=C(OCCCN1CCCC1)C(O)(c1ccccc1)C1CCCCC1` (stereo not given), for which the activity change is inactive: 5.01%. With `CP(=O)(Oc1ccccc1)N1CCOC1=O` (stereo not given), the activity change is inactive: 1.9%. With `CCc1ccc(OP(C)(=O)Nc2cccnc2)cc1` (stereo not given), the activity change was inactive: 0.0408%. Then `Nc1ccc2c(ccc3cccnc32)n1.O=[N+]([O-])c1cc([N+](=O)[O-])c(O)c([N+](=O)[O-])c1`, with inactive: -1.47%; and `CCOC(=O)c1ccc(NP(C)(=O)Oc2ccc(Cl)cc2)cc1` (stereo not given), with inactive: -2.34%; and `CP(=O)(OC12CC3CC(CC(C3)C1)C2)OC12CC3CC(CC(C3)C1)C2`, with inactive: 12.3%. Consider `CP(=O)(Nc1ccc(Cl)cc1Cl)Oc1ccccc1` (stereo not given), for which the activity change was inactive: -8.58%.

As for `CCCCCCCCCCCCCCCC1C[N+](C)(C)CCOP(C)(=O)O1` (stereo not given), the activity change is inactive: -18.2%. As for `CP(=O)(OCCOc1ccccc1)OCCOc1ccccc1`, the activity change was inactive: -12.6%. The value for `Cc1cc(C)cc(OP(C)(=O)Nc2cccc(C(F)(F)F)c2)c1` (stereo not given) was inactive: -1.49%; that for `COc1ccccc1OP(C)(=O)Nc1ccc(C)c(C)c1` (stereo not given) was inactive: -5.9%; that for `COc1ccc(OP(C)(=O)Nc2ccccc2Br)cc1` (stereo not given) was inactive: -5.35%.

For `Cc1c(NP(C)(=O)Oc2ccc(C(C)C)cc2)c(=O)n(-c2ccccc2)n1C` (stereo not given), the activity change was inactive: -3.54%. Then `O=[N+]([O-])c1cc([N+](=O)[O-])c(Nc2ccccn2)c([N+](=O)[O-])c1`, with inactive: 1.13%; and `CP(=O)(Nc1ccccn1)Oc1ccccc1` (stereo not given), with inactive: 0.551%. Then `COc1ccccc1OP(C)(=O)Nc1ccc(C)cc1C` (stereo not given), with inactive: 5.75%; and `CCc1ccc(OP(C)(=O)O)cc1`, with inactive: 7.27%; and `COc1ccccc1OP(C)(=O)Nc1ccc(Br)cc1` (stereo not given), with inactive: -8.31%. The value for `COc1ccc(OP(C)(=O)Nc2ccccn2)cc1` (stereo not given) was inactive: 4.9%. With `CN(C)CCOC(=O)C(O)(c1ccccc1)C1CCCC1` (stereo not given), the activity change was inactive: -18.4%. The value for `CCN(CC)CCCOC(=O)C(O)(c1ccccc1)c1ccccc1` was inactive: -16.6%; that for `COc1ccccc1OP(C)(=O)Nc1ccc(C)cc1` (stereo not given) was inactive: -2.56%; that for `Cc1ccc(NP(C)(=O)Oc2ccccc2)c(C)c1` (stereo not given) was inactive: -5.2%.

On to `CCOC(=O)c1ccc(NP(C)(=O)Oc2ccccc2)cc1` (stereo not given), for which the activity change is inactive: 3.37%.

Turning to `Cc1cc(C)cc(OP(C)(N)=O)c1` (stereo not given), the activity change is inactive: 3.48%. Then `COc1ccccc1OP(C)(=O)Nc1cc(Cl)ccc1C` (stereo not given), with inactive: -2.39%. The value for `COc1ccc(OP(C)(=O)Nc2cccc(F)c2)cc1` (stereo not given) was inactive: 5.55%; that for `O=[N+]([O-])c1cc([N+](=O)[O-])c(Nc2cccnc2)c([N+](=O)[O-])c1` was inactive: 1.6%. The value for `O=[N+]([O-])c1ccc2c(c1)C=Nc1ccccc1O2` was inactive: 7.29%; that for `CC(C)(C)c1ccc(OP(C)(=O)Nc2ccc(SC(F)(F)F)cc2)cc1` (stereo not given) was inactive: 0.0658%; that for `Cc1cccc(C)c1OP(C)(N)=O` (stereo not given) was inactive: 9.94%. On to `CP(=S)(Nn1cnnc1)Oc1ccccc1` (stereo not given), for which the activity change is inactive: -4.89%.

With `CP(=O)(Nc1ccccc1Br)Oc1ccccc1` (stereo not given), the activity change is inactive: -3.81%. On to `COc1ccccc1OP(C)(=O)Nc1ccccc1` (stereo not given), for which the activity change was inactive: -1.83%. The value for `CCOC(=O)c1ccc(NP(C)(=O)Oc2ccc(OC)cc2)cc1` (stereo not given) was inactive: 6.16%; that for `O=[N+]([O-])c1cc([N+](=O)[O-])c(O)c([N+](=O)[O-])c1.c1ccc(Oc2ccncc2)cc1` was inactive: -4.09%; that for `CCOP(C)(=S)SCC(=O)NC(C)C(=O)O` (stereo not given) was inactive: -1.02%. Then `CP(=O)(Nc1ccccn1)Oc1ccc(Cl)cc1` (stereo not given), with inactive: 5.35%. The value for `Cc1cccc(C)c1OP(C)(=O)Nc1ccc(SC(F)(F)F)cc1` (stereo not given) was inactive: -7.6%; that for `CP(=O)(Nc1ccc(SC(F)(F)F)cc1)Oc1ccc(Cl)cc1` (stereo not given) was inactive: -3.05%. Take `CP(=O)(Oc1ccccc1)OC(c1ccccc1)C(F)(F)F` (stereo not given): the activity change is inactive: 0.446%. Then `CP(=O)(NC(=O)Nc1ccccc1)Oc1ccccc1` (stereo not given), with inactive: -3.69%; and `CCc1ccc(OP(C)(=O)N2CCN(c3ccc([N+](=O)[O-])cc3)CC2)cc1` (stereo not given), with inactive: 6.57%. Consider `Cc1cc(C)cc(OP(C)(=O)Nc2ccc(SC(F)(F)F)cc2)c1` (stereo not given), for which the activity change was inactive: -8.43%. For `O=[N+]([O-])c1cc([N+](=O)[O-])c(-c2cnn(-c3ccccc3)c2)c([N+](=O)[O-])c1`, the activity change was inactive: 0.672%. Then `Cc1nc2ccc3ccccc3c2s1.O=[N+]([O-])c1cc([N+](=O)[O-])c(O)c([N+](=O)[O-])c1`, with inactive: -8.73%. For the compound `O=[N+]([O-])c1cc([N+](=O)[O-])c(-n2nnc3ccccc32)c([N+](=O)[O-])c1`, the activity change was inactive: -19%. Then `COc1ccccc1OP(C)(=O)Nc1c(C)cccc1C` (stereo not given), with inactive: 15%.

`CN1CCCCC1COC(=O)C1(O)c2ccccc2CCc2ccccc21` (stereo not given): the activity change is inactive: 10.3%. For `CCCOc1ccc(NP(C)(=O)Oc2ccc(Cl)cc2)cc1` (stereo not given), the activity change was inactive: -3.05%. The value for `CP(=O)(Nc1ccc(SC(F)(F)F)cc1)Oc1ccccc1` (stereo not given) was inactive: 2.84%. Then `CC1=C2N=C(C=C3N=C(C(C)=C4[N-][C@@](C)([C@@H]5N=C1[C@](C)(CCC(=O)NC[C@@H](C)OP(=O)([O-])O[C@H]1[C@@H](O)[C@@H](n6cnc7cc(C)c(C)cc76)O[C@@H]1CO)[C@H]5CC(N)=O)[C@@](C)(CC(N)=O)[C@@H]4CCC(N)=O)[C@@](C)(CC(N)=O)[C@@H]3CCC(N)=O)C(C)(C)[C@@H]2CCC(N)=O.[C-]#N.[Co+3]`, with inactive: 6.09%; and `O=[N+]([O-])c1cc([N+](=O)[O-])c(Nc2nnnn2CCO)c([N+](=O)[O-])c1`, with inactive: 5.61%; and `CC1=NCCc2c1[nH]c1ccccc21.O=[N+]([O-])c1cc([N+](=O)[O-])c(O)c([N+](=O)[O-])c1`, with inactive: 4.44%. On to `Cc1ccc(C)c(NP(C)(=O)Oc2ccccc2)c1` (stereo not given), for which the activity change was inactive: 8.42%. `Cc1cc(C)cc(OP(C)(=O)Nc2ccccn2)c1` (stereo not given): the activity change is inactive: -9.78%. Then `CP(=O)(Nc1cccc(Br)c1)Oc1ccccc1` (stereo not given), with inactive: 2.16%. The value for `COc1ccccc1OP(C)(=O)Nc1cccc(Br)c1` (stereo not given) was inactive: -0.569%. `CCOC(=O)c1ccc(NP(C)(=O)Oc2cc(C)cc(C)c2)cc1` (stereo not given): the activity change is inactive: -0.0439%. Then `Cc1cc(C)cc(OP(C)(=O)Nc2ccc(C)cc2C)c1` (stereo not given), with inactive: -10.1%.
